Measured values taken from the OPERA property sets (Mansouri et al. 2018).
≈ marks a conversion by molar mass, not a printed value.

SMILES: CS(=O)(=O)N(SC(Cl)(Cl)C(F)(Cl)Cl)c1ccccc1
- solubility: 7.1 µM (≈ 2.75 µg/mL)
